The numbers were not newly measured in patent US6486173B2, “5-HT7 receptor antagonists” (Bristol-Myers Squibb Pharma Company, priority 1998, dated 2002), which cites them from elsewhere.

The chains behind the UniProt entries cited, without tags or fusion partners.
UniProt P34969, whole entry: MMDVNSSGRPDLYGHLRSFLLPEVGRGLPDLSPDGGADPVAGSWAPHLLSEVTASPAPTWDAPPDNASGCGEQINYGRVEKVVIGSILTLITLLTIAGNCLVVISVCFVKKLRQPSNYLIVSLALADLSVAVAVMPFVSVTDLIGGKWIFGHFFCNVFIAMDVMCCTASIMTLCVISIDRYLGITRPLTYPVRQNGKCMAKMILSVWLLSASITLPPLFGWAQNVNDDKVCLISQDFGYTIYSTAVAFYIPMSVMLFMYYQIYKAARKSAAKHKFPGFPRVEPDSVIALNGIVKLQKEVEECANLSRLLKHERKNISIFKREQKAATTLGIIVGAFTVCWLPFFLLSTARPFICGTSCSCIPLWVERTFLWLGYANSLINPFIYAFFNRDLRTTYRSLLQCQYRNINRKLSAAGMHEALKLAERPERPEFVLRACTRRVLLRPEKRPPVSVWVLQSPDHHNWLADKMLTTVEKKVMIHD

This series has as its target 5-HT7 receptor (Homo sapiens, UniProt P34969). Particulars: cited from earlier work.

In the case of methiothepin, the 5-HT7 receptor affinity result is reported as “high 5-HT7 receptor affinity”.
